Test results taken from ChEMBL document CHEMBL5149994, “Anticancer potential of indirubins in medicinal chemistry: Biological activity, structural modification, and structure-activity relationship” (Eur J Med Chem, 2021).
pIC50: −log10 of the molar value.

Protein sequences, listed by entry. Tags and fused reporters are not part of them. Lines headed by an entry give the natural chain unless they say otherwise; changes in a name come on top.
UniProt P11802: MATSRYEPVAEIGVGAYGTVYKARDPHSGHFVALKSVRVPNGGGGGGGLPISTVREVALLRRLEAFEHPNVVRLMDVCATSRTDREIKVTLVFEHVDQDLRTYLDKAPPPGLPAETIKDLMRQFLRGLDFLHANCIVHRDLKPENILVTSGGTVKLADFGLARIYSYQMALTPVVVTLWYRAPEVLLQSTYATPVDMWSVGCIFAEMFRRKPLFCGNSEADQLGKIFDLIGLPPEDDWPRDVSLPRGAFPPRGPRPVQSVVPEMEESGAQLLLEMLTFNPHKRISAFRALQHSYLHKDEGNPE
UniProt B2LUN4: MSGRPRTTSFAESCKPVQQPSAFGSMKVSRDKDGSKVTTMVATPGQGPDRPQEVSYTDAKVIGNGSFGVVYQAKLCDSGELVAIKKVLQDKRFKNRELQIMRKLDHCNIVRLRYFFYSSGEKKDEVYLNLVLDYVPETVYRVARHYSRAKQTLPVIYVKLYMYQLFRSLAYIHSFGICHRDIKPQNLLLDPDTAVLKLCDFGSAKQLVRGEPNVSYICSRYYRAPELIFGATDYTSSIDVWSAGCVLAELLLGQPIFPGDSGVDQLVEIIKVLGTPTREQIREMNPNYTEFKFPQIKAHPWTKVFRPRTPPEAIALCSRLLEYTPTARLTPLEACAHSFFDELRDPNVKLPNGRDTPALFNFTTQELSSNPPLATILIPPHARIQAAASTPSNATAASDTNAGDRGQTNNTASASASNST
UniProt I6LNT8: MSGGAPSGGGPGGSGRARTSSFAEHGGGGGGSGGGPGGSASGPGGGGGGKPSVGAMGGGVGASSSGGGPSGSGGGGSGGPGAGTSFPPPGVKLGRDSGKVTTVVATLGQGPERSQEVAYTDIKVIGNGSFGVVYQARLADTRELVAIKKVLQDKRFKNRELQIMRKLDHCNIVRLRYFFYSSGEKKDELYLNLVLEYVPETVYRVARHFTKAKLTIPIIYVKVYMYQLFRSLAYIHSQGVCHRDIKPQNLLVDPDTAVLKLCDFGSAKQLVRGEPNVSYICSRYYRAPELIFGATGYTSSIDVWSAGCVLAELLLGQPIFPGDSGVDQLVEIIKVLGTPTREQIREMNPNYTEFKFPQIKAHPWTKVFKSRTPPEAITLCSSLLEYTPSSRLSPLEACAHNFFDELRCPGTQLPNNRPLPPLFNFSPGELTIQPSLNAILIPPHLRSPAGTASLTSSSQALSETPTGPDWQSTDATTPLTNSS
UniProt P49841: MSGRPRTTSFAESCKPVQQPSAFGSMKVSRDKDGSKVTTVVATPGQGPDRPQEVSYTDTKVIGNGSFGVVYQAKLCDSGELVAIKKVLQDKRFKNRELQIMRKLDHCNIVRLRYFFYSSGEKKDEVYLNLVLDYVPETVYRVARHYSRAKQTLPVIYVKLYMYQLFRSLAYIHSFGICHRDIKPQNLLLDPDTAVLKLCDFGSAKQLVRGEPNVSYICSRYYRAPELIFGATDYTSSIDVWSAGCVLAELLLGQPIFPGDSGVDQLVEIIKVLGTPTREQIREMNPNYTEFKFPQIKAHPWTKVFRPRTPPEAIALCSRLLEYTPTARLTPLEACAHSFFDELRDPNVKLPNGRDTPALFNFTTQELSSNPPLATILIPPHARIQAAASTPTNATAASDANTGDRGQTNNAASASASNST

Assays:
[1] = biological target: Cyclin-dependent kinase 4/cyclin D1 (Homo sapiens, UniProt P11802); test: Inhibition of CDK4/cyclin D1 (unknown origin); type: protein-complex assay
[2] = Inhibition of AMPK (unknown origin) in presence of ATP; design: species or system Homo sapiens
[3] = biological target: Glycogen synthase kinase-3 (Sus scrofa, UniProt B2LUN4+I6LNT8); test: Inhibition of porcine brain GSK-3alpha/beta incubated for 30 mins in presence of [33p]-gamma ATP by scintillation counter analysis
[4] = biological target: T1, Glycogen synthase kinase-3 beta (Homo sapiens, UniProt P49841); test: Inhibition of GSK3beta (unknown origin) in presence of ATP
[5] = biological target: T1, Glycogen synthase kinase-3 beta; test: Inhibition of GSK3beta (unknown origin) assessed as decrease in tau phosphorylation at Ser214 residue incubated for 30 mins by Western blot assay

Row | pIC50 [1] | pIC50 [2] | pIC50 [4] | pIC50 [5] | Structure (SMILES) | IC50 [3]
1 | 6.52 | – | – | – | O=C1Nc2ccc(S(=O)(=O)O)cc2/C1=C1/Nc2ccccc2C1=O | –
2 | – | 6.66 | 6.72 | 7.66 | O=C1Nc2ccccc2/C1=C1/Nc2ccccc2/C1=N\O | 22 nM
3 | – | – | – | – | O=C1Nc2ccccc2/C1=C1/Nc2ccccc2C1=O [INDIRUBIN] | 1000 nM
